Data on 1 substance can be found in US20150231067A1, “METHOD AND COMPOSITION FOR TREATING HYPERGLYCEMIA” (MannKind Corporation, priority 2012, published 2015).

Like-named read-outs stand apart in the source and are kept apart here.

In the case of oxyntomodulin, the Tmax result (inhaled oxyntomodulin/FDKP powder, male ZDF rats) is “less than 15 min”. The maximal plasma concentration by setting is: (rats receiving 1.5 mg) 311 µg/mL; (rats receiving 3 mg) 660 µg/mL.
